System: C57BL/6J mice
Assay: Antifeeding activity (high fat diet intake up to 4 hours)
Conditions: male C57BL/6J mice, 5 mg/kg oral, food ingested up to 4 hours

Structure (SMILES): CC(C)(COc1ncc(-c2ccc(-c3ncc(C(F)(F)F)[nH]3)c(Cl)c2)cn1)C(=O)O
- Antifeeding rate (5 mg/kg): 58%

Reference: patent publication US9302996B2, “Continuous arycyclic compound” (MITSUBISHI TANABE PHARMA CORPORATION, priority 2010, dated 2016)
